Test system: antisera generated in response to immunogen of Example 11
Experiment: Competitive chemiluminescent biochip immunoassay, antisera raised against immunogen of Example 11, conjugate of Example 12
Type: binding, sheep

With `CN1CC[C@]23c4c5ccc(O)c4O[C@H]2C(=O)CC[C@H]3[C@H]1C5` [hydromorphone] the “Concentration exhibiting no cross-reactivity” value was 10 µg/mL.
